Results on three compounds are retold here after PubChem BioAssay (NCI).

Each structure is given as a SMILES string. The list shows a part of the results, in another mix than the full data. Some structures show a salt or complex split into parts, the way the source records it. A structure can be active in one record and inactive in another. Calls of active or inactive are those of the source. Cut-off read from the data, not from the text of the source: active = growth inhibition above about 70%; inactive = the rest.

One assay can be described thus: NCI Yeast Anticancer Drug Screen. Data for the rad50 strain (AID 155).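 Note: 0% = growth of vehicle-only cultures of the same strain.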 Conditions: S. cerevisiae rad50 strain growth inhibition; at 50.0 µM; active compounds read high.
Take `O=[N+]([O-])c1cc([N+](=O)[O-])c(O)c([N+](=O)[O-])c1.OCCN(CCCl)CCCl`: the growth inhibition is active: 79.8%.

For `CN(C)C(=O)OCC[N+](C)(C)CCC[N+](C)(C)CCOC(=O)N(C)C.O=[N+]([O-])c1cc([N+](=O)[O-])c([O-])c([N+](=O)[O-])c1`, the growth inhibition is inactive: 10.3%.

Take `O=[N+]([O-])c1cc([N+](=O)[O-])c(S(=O)(=O)[O-])c([N+](=O)[O-])c1.OCC[S+](CCO)CCSCCCl`: the growth inhibition was inactive: 33.2%.

The nature of another assay: NCI Yeast Anticancer Drug Screen. Data for the mec2-1 strain (AID 157). To be noted: S. cerevisiae mec2-1 strain, at 50.0 µM, active compounds read high.
In the case of `O=[N+]([O-])c1cc([N+](=O)[O-])c(O)c([N+](=O)[O-])c1.OCCN(CCCl)CCCl`, the growth inhibition was inactive: 2.05%.

For `CN(C)C(=O)OCC[N+](C)(C)CCC[N+](C)(C)CCOC(=O)N(C)C.O=[N+]([O-])c1cc([N+](=O)[O-])c([O-])c([N+](=O)[O-])c1`, the growth inhibition is inactive: 3.25%.

In the case of `O=[N+]([O-])c1cc([N+](=O)[O-])c(S(=O)(=O)[O-])c([N+](=O)[O-])c1.OCC[S+](CCO)CCSCCCl`, the growth inhibition was inactive: 14.8%.

The nature of another assay: NCI Yeast Anticancer Drug Screen. Data for the sgs1 mgt1 strain (AID 161).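 Note: 0% = growth of cultures given vehicle only.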 To be noted: S. cerevisiae sgs1 mgt1 strain, at 50.0 µM, active compounds read high.
`O=[N+]([O-])c1cc([N+](=O)[O-])c(O)c([N+](=O)[O-])c1.OCCN(CCCl)CCCl`: the growth inhibition was inactive: 36.8%.

On to `CN(C)C(=O)OCC[N+](C)(C)CCC[N+](C)(C)CCOC(=O)N(C)C.O=[N+]([O-])c1cc([N+](=O)[O-])c([O-])c([N+](=O)[O-])c1`, for which the growth inhibition is inactive: 5.65%.

Consider `O=[N+]([O-])c1cc([N+](=O)[O-])c(S(=O)(=O)[O-])c([N+](=O)[O-])c1.OCC[S+](CCO)CCSCCCl`, for which the growth inhibition is inactive: 58.5%.

A further assay is described as follows: NCI Yeast Anticancer Drug Screen. Data for the cln2 rad14 strain (AID 165).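 Note: 0% = growth equal to vehicle treated cultures.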 Conditions: S. cerevisiae cln2 rad14 strain, at 50.0 µM, active compounds read high.
Consider `O=[N+]([O-])c1cc([N+](=O)[O-])c(O)c([N+](=O)[O-])c1.OCCN(CCCl)CCCl`, for which the growth inhibition is inactive: -26.4%.

On to `CN(C)C(=O)OCC[N+](C)(C)CCC[N+](C)(C)CCOC(=O)N(C)C.O=[N+]([O-])c1cc([N+](=O)[O-])c([O-])c([N+](=O)[O-])c1`, for which the growth inhibition is inactive: -1.4%.

With `O=[N+]([O-])c1cc([N+](=O)[O-])c(S(=O)(=O)[O-])c([N+](=O)[O-])c1.OCC[S+](CCO)CCSCCCl`, the growth inhibition was inactive: 53.9%.

Another assay in a line: NCI Yeast Anticancer Drug Screen. Data for the mlh1 rad18 strain (AID 175). To be noted: S. cerevisiae mlh1 rad18 strain growth inhibition; at 50.0 µM; active compounds read high.
As to `O=[N+]([O-])c1cc([N+](=O)[O-])c(O)c([N+](=O)[O-])c1.OCCN(CCCl)CCCl`, the growth inhibition is inactive: 10.4%.

For `CN(C)C(=O)OCC[N+](C)(C)CCC[N+](C)(C)CCOC(=O)N(C)C.O=[N+]([O-])c1cc([N+](=O)[O-])c([O-])c([N+](=O)[O-])c1`, the growth inhibition was inactive: 22.1%.

As for `O=[N+]([O-])c1cc([N+](=O)[O-])c(S(=O)(=O)[O-])c([N+](=O)[O-])c1.OCC[S+](CCO)CCSCCCl`, the growth inhibition was active: 81.7%.
